Most compounds without a hit are left out; they make up all but 2.1% or so of the library.
UUG fidelity: modulators of start codon recognition fidelity in yeast. S. cerevisiae UUG-firefly luciferase reporter, luminescence/redox ratio. activity score, % at 18.7 µM. 0.13% of 350,000 active. AID 602363;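 active = replicate mean at a twofold rise or more, about +100% in these data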;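 also: firefly luciferase made from a UUG start codon reports start codon fidelity; reporter light over untreated wells divided by growth signal over untreated wells; some hits fall short of that in this replicate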
SMARCA2 act: SMARCA2 (BRM) function activators, primary screen, cell-based, luminescence, high throughput; AID 652017, 2013; activation, % at 9.1 µM; MG213 cells, MMTV-luciferase reporter, dexamethasone, overnight; 1% of 370,000 active; in the data active = activation above about 7.8%;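 note: 0% = vehicle wells and 100% = reference activator wells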
PDI inh: inhibitors of human PDI, primary screen, biochemical, turbidity, single point, plate reader; Protein disulfide-isomerase (Homo sapiens), P07237; PDI insulin aggregation turbidity, A650, 90 min; inhibition, % at 10 µM; 0.052% of 350,000 active;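 active = mean inhibition across replicates of 30% or more, whatever share of single replicates reach that level; inconclusive = mean inhibition below 30% while every single replicate reaches 30%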
Rev-erbA mod: modulators of Rev-erb alpha DNA binding, primary screen, biochemical, FITC-DNA, fluorescence polarization, uHTS; 0.79% of 370,000 active; Rev-erbα–FITC-DNA binding, 90 min; activity, % at 10 µM;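 active = activity above about 14%, limit read from the data; passing the limit was not always enough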;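 note: 0% = DMSO wells with 35 nM protein and 100% = DMSO wells with 750 nM protein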
ERp5 inh: inhibitors of ERp5-driven insulin aggregation, primary screen, biochemical, turbidity, absorbance 650 nm, single point. Protein disulfide-isomerase A6 (Homo sapiens), Q15084. 90 min. inhibition, % at 9.99 µM. 0.05% of 350,000 active. AID 651711, 2012;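 active = mean replicate inhibition above about 25%, with every replicate also reaching it, limit read from the data, passing the limit was not always enough; inconclusive = only one of those two criteria met; inactive = neither criterion met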
GSIS activator: GLuc luminescence reporter in INS-1E cells, primary screen for activators of glucose-dependent secretion of insulin. INS-1E GLuc reporter insulin secretion, 2-3 h. activation, % at 16.6 µM. 0.61% of 370,000 active;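 active = lowest replicate activation of at least 40%, so every replicate reaches that level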;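 note: 0% = median of neutral control wells and 100% = median of IBMX positive control wells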
Rev-erbA confirm: modulators of Rev-erb alpha DNA binding, confirmation, biochemical, FITC-DNA, fluorescence polarization, single point; shares compounds with Rev-erbA mod; 90 min; activation, % at 25 µM; 61% of 3,000 active; AID 1259319, 2017;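 active = activation at or above a set limit, or at least 3 SD above the negative control mean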;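 note: 0% = 35 nM protein with DMSO and 100% = 750 nM protein high control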
RORg DNA counter: modulation of RORgamma DNA binding, dose response, counter-screen for Rev-erb alpha modulator project, biochemical, fluorescence polarization, FITC-DNA; IC50, µM; 8% of 910 active; shares compounds with Rev-erbA mod; purified RORgamma protein-FITC-DNA binding;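 active = Compounds whose fitted half-maximal concentration for disrupting protein-DNA binding is below 10 micromolar; the record names Rev-erb in its text, so the target is in doubt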
An asterisk follows results filed as active; ? = inconclusive; . = not tested or not shown.

Chains of the proteins cited; added tags and fusions are not shown.
Protein disulfide-isomerase A6 (Homo sapiens), Q15084, UniProt Q15084, whole entry, looked up: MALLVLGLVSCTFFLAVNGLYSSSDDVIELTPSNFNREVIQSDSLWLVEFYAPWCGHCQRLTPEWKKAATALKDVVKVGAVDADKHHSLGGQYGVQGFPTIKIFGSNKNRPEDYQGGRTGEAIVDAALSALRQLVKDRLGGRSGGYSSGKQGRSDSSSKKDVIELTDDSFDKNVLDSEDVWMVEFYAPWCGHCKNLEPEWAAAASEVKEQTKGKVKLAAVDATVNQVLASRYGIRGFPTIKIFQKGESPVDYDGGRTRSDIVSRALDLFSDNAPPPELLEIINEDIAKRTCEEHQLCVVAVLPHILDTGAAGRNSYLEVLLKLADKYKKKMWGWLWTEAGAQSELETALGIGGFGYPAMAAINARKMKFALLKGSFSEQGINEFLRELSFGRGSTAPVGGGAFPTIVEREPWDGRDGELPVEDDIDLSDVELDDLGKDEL

Screens by letter – A = UUG fidelity; B = SMARCA2 act; C = PDI inh; D = Rev-erbA mod; E = ERp5 inh; F = GSIS activator; G = Rev-erbA confirm; H = RORg DNA counter
CCCCN1C(=O)/C(=C/C=C2/CC(C)(C)CN2C)SC1=S
  A = . | B = 0.4 | C = 0.7 | D = 83.6* | E = . | F = -21.6 | G = 94.5* | H = 9.78*
CCCN1C(=O)/C(=C/C=C2\N(CC)c3ccccc3C2(C)C)SC1=S
  A = -11.0 | B = 2.7 | C = -3.6 | D = 47.1* | E = . | F = . | G = 43.2* | H = .
O=C(c1ccc(F)cc1)N1CC(=O)N2[C@@H](CO)[C@H](c3ccc(C#CC4CC4)cc3)[C@@H]2C1
  A = . | B = . | C = . | D = . | E = -0.7 | F = -7.0 | G = . | H = .
C[C@H](CO)N1C[C@H](C)[C@H](CN(C)S(=O)(=O)c2cn(C)cn2)Oc2ncc(-c3cccc(F)c3)cc2C1=O
  A = 22.9 | B = . | C = . | D = . | E = -5.4 | F = 27.0 | G = . | H = .
COc1ccccc1S(=O)(=O)Nc1ccc2c(c1)OC[C@@H](C)NC[C@H](C)[C@H](OC)CN(C)C2=O
  A = -11.5 | B = . | C = . | D = . | E = -23.3 | F = -7.7 | G = . | H = .
COc1ccc(C(C)=O)cc1CSc1nc2ccccc2c(=O)n1-c1ccccc1
  A = -5.7 | B = -1.5 | C = 3.7 | D = 36.1* | E = . | F = 34.4 | G = 35.9* | H = >40
COc1ccc(C(C)=O)cc1CSc1nc2ccccc2c(=O)n1-c1cccc(C)c1
  A = -16.4 | B = -2.0 | C = -1.4 | D = 38.8* | E = . | F = 3.9 | G = 36.0* | H = 9.42*
COc1ccc(C(C)=O)cc1CSc1nc2ccccc2c(=O)n1-c1ccccc1C
  A = -7.9 | B = -3.4 | C = 2.5 | D = 2.6 | E = 1.3 | F = 16.8 | G = . | H = .
O=C1N[C@@H](Cc2ccccc2)COCc2cn(nn2)CC[C@@H]1Cc1ccc(-c2ccccc2)cc1
  A = . | B = . | C = . | D = . | E = . | F = 4.0 | G = . | H = .
COc1ccc(-n2cc(C(=O)c3cc4ccccc4oc3=O)c(C(C)=O)n2)cc1
  A = -10.2 | B = 2.6 | C = 6.9 | D = 22.8* | E = . | F = . | G = 9.4 | H = .

Entries listed so far that have fluorine:
Screens by letter – A = UUG fidelity; B = SMARCA2 act; C = PDI inh; D = Rev-erbA mod; E = ERp5 inh; F = GSIS activator; G = Rev-erbA confirm; H = RORg DNA counter
O=C(c1ccc(F)cc1)N1CC(=O)N2[C@@H](CO)[C@H](c3ccc(C#CC4CC4)cc3)[C@@H]2C1
  A = . | B = . | C = . | D = . | E = -0.7 | F = -7.0 | G = . | H = .
C[C@H](CO)N1C[C@H](C)[C@H](CN(C)S(=O)(=O)c2cn(C)cn2)Oc2ncc(-c3cccc(F)c3)cc2C1=O
  A = 22.9 | B = . | C = . | D = . | E = -5.4 | F = 27.0 | G = . | H = .

The listing continues:
Screens by letter – A = UUG fidelity; B = SMARCA2 act; C = PDI inh; D = Rev-erbA mod; E = ERp5 inh; F = GSIS activator; G = Rev-erbA confirm; H = RORg DNA counter
COc1cccc(OC(=O)c2cc3ccccc3oc2=O)c1
  A = -7.8 | B = -0.9 | C = -2.7 | D = 2.0 | E = 3.9 | F = -41.9 | G = . | H = .
Cc1cccc(-c2nnc3sc(-c4ccccc4)nn23)c1
  A = 4.8 | B = 0.4 | C = -1.4 | D = 82.3* | E = . | F = 17.7 | G = 135.4* | H = .
CC(C)(C)c1ccc(-c2nnc3sc(-c4ccccn4)nn23)cc1
  A = -35.5 | B = -1.8 | C = . | D = 21.8* | E = -1.9 | F = 3.4 | G = 21.0* | H = .
COc1cccc(-c2nnc3sc(-c4ccccn4)nn23)c1
  A = -12.6 | B = 2.1 | C = -13.1 | D = 0.8 | E = . | F = . | G = . | H = .
CCS(=O)(=O)N[C@H]1CC[C@@H](CC(=O)NCc2ccc(Cl)cc2)O[C@@H]1CO
  A = 4.1 | B = . | C = . | D = . | E = 4.6 | F = . | G = . | H = .
COc1ccc(S(=O)(=O)N(C)C[C@@H]2OCCCC[C@@H](C)Oc3ccc(NC(=O)C4CCCCC4)cc3C(=O)N([C@H](C)CO)C[C@@H]2C)cc1
  A = -2.5 | B = . | C = . | D = . | E = -4.2 | F = 16.3 | G = . | H = .
CCN(CC)c1ccc(/C=C(\C#N)C(N)=S)cc1
  A = . | B = 4.2 | C = 4.8 | D = 75.6* | E = 3.9 | F = -14.7 | G = 64.0* | H = >40
CCN(CC)c1ccc(/C=C(\C#N)C(=O)c2ccc(Br)cc2)cc1
  A = . | B = -0.3 | C = -15.1 | D = 58.7* | E = . | F = -46.9 | G = 70.1* | H = >40
CCN(CC)c1ccc(/C=C(\C#N)C(N)=O)cc1
  A = . | B = 4.0 | C = 0.6 | D = 8.5 | E = 1.6 | F = 2.4 | G = . | H = .
C=CCN1C(=O)c2cccc3c(N4CCCCC4)ccc(c23)C1=O
  A = . | B = 1.6 | C = 7.3 | D = 18.6* | E = -2.0 | F = -13.1 | G = 24.2* | H = .
Cc1n[nH]c(C)c1N1C(=O)c2cccc3c(N4CCCCCC4)ccc(c23)C1=O
  A = -4.6 | B = 4.9 | C = -2.4 | D = 93.5* | E = . | F = . | G = 90.2* | H = >40
O=C(c1cccc(N2C(=O)c3ccccc3C2=O)c1)N1CCCCCC1
  A = . | B = -1.6 | C = 3.4 | D = -1.5 | E = -4.9 | F = -13.3 | G = . | H = .
O=C1c2cccc3c(N4CCCCC4)ccc(c23)C(=O)N1c1cccc(O)c1
  A = . | B = 0.9 | C = 19.5 | D = 60.8* | E = 1.9 | F = 5.5 | G = 62.1* | H = >40
COc1ccc(NC(=O)N(C)C[C@@H]2Oc3ccc(NS(=O)(=O)c4ccc(C)cc4)cc3C(=O)N([C@@H](C)CO)C[C@@H]2C)cc1
  A = . | B = . | C = . | D = . | E = . | F = 6.0 | G = . | H = .
COc1ccc(NC(=O)N2CCN(CCC#N)CC2)cc1
  A = -4.7 | B = 1.6 | C = -6.0 | D = -5.8 | E = . | F = . | G = . | H = .
CC1=CC(=C(C#N)C#N)C=C(C)N1CCN1CCN(C(=O)Nc2ccc(Cl)c(Cl)c2)CC1
  A = . | B = -2.1 | C = 8.4 | D = 41.0* | E = . | F = 4.5 | G = 26.0* | H = .
C[C@@H]1CCCCO[C@@H](CN(C)S(C)(=O)=O)[C@H](C)CN([C@@H](C)CO)C(=O)c2cc(N(C)C)ccc2O1
  A = -3.2 | B = . | C = . | D = . | E = 0.8 | F = 27.3 | G = . | H = .
C=CCOc1ccc(C2NC(=S)NC(c3ccccc3)=C2C(C)=O)cc1OC (stereo not drawn)
  A = . | B = -3.7 | C = -5.2 | D = -7.2 | E = -5.7 | F = 2.8 | G = . | H = .
CCOC(=O)COc1c(Cl)cc(C2NC(=S)NC(c3ccccc3)=C2C(C)=O)cc1OCC (stereo not drawn)
  A = 11.8 | B = -2.3 | C = 3.1 | D = 34.1* | E = . | F = -26.7 | G = 31.2* | H = >40
[N-]=[N+]=NCc1ccccc1C[C@]1(C(=O)N2CCCCC2)COC(c2ccc(OCCCO)cc2)=N1
  A = -1.0 | B = . | C = . | D = . | E = -2.0 | F = . | G = . | H = .
COCCNc1nc2sc3c(c2c(=O)n1Cc1ccco1)CCCCC3
  A = -22.6 | B = 7.1 | C = -8.0 | D = 48.7* | E = 1.4 | F = 1.6 | G = 23.3* | H = .
Cc1ccc(-c2ccc3c(c2)O[C@@H](CN(C)C(=O)C2CCCCC2)[C@@H](C)CN([C@H](C)CO)S3(=O)=O)cc1
  A = . | B = . | C = . | D = . | E = . | F = -9.6 | G = . | H = .
Cc1ccc(S(=O)(=O)N(C)C[C@H]2Oc3ccc(NS(=O)(=O)c4cn(C)cn4)cc3C(=O)N([C@@H](C)CO)C[C@@H]2C)cc1
  A = . | B = . | C = . | D = . | E = . | F = 20.8 | G = . | H = .
O=C1c2ccccc2C(c2nnnn2Cc2ccccc2)N1CCc1c[nH]c2ccccc12 (stereo not drawn)
  A = . | B = 2.1 | C = . | D = 19.9* | E = 0.1 | F = -23.2 | G = -5.2 | H = .
CCCNC(=O)N[C@H]1C=C[C@H](CC(=O)NC2CCC2)O[C@@H]1CO
  A = -6.5 | B = . | C = . | D = . | E = 4.5 | F = 14.4 | G = . | H = .
COC(=O)c1ccccc1NC(=O)N1c2ccccc2Sc2ccccc21
  A = . | B = -0.7 | C = -0.8 | D = -3.2 | E = . | F = 34.7 | G = . | H = .
COC(=O)c1ccc(C(=O)OC)c(NC(=O)N2c3ccccc3Sc3ccccc32)c1
  A = -18.8 | B = -2.0 | C = 13.6 | D = 26.2* | E = -1.3 | F = -4.5 | G = 47.5* | H = >40
C[n+]1ccc(/C=C/c2c[nH]c3ccc(F)cc23)cc1
  A = -6.5 | B = -4.2 | C = -12.5 | D = 124.9* | E = 2.0 | F = -5.0 | G = 90.2* | H = >40
CC1CC(C)CN(S(=O)(=O)c2ccc3c(c2)n(C)c(=O)c(=O)n3C)C1 (stereo not drawn)
  A = -0.1 | B = -1.6 | C = -1.8 | D = 65.8* | E = ? | F = 35.2 | G = -0.4 | H = .
Cn1nc(-c2ccccc2)cc1NC(=O)c1ccccc1
  A = -9.6 | B = 3.2 | C = 5.9 | D = 41.2* | E = -2.4 | F = -22.6 | G = 2.2 | H = .
Fc1ccc(-n2c(-c3cccs3)nc3nc4ccccc4nc32)cc1
  A = . | B = -4.8 | C = -2.3 | D = 75.4* | E = . | F = 9.3 | G = 59.4* | H = >40

Compound activity as filed in PubChem.
